# Only a part is listed here, and it is no random draw. Some tests of the compounds listed are not included; inactive here does not mean inactive elsewhere. Activity calls are given as the source filed them.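 How the source made its calls: active means inhibition above the mean of all tested compounds plus 3 SD (cut at about 43% in these data); inactive means the rest.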
# Chains of the proteins cited; added tags and fusions are not shown.
# UniProt P08908, whole entry: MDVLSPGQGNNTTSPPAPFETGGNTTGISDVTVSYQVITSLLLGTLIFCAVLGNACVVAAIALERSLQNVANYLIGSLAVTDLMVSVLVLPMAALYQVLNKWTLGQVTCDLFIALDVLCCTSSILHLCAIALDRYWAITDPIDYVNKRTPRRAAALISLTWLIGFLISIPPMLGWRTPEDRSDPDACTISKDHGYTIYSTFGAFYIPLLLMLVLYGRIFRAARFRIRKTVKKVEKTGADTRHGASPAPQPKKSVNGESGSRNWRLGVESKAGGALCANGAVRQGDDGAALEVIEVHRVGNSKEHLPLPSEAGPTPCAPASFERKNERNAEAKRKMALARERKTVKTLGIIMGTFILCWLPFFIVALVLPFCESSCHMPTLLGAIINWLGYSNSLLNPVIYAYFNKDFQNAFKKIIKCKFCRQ
# Target: 5-hydroxytryptamine receptor 1A (Homo sapiens) (UniProt P08908)
# Assay: human 5-HT1a receptor antagonists, primary screen, cell-based, CHO, Ga15 NFAT-bla reporter (AID 612);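 further: receptor stimulated by 5-CT agonist at 100 nM near EC80; beta-lactamase reporter measured by ratiometric fluorescence of a cleavable substrate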
# Settings: CHO 5-HT1a Ga15 NFAT-bla reporter, antagonist mode; at 10 µM; stronger effect = higher value
row,Structure (SMILES),inhibition
1,O=C(OC1CN2CCC1CC2)C(CO)(c1ccccc1)c1ccccc1 (configuration not stated),inactive: -1.9%
2,CN(C)c1cccc(C(=O)NCC2(N(C)C)CCCCC2)c1,inactive: -2%

# Reference: PubChem BioAssay AID612 (The Scripps Research Institute Molecular Screening Center, 2007)
